System: patients chronically infected with HBV
Assay: 4-week clinical treatment combining weekly sub-cutaneous pegylated IFNα2a (PEG-IFN) with daily oral EYP001a or placebo: treatment emergent adverse events

Substance: INF: weekly sub-cutaneous injections of pegylated IFNα2a, PEG-IFN
- Non-Flu like TEAE (%) (Placebo + INF, subjects n = 8, % of total non-flu like TEAE (77) of all arms): (22.1%)
- patients who developed flu-like adverse events related to IFN (number) (overall, all 25 patients (PEG-IFN with EYP001a or placebo), 4-week treatment): 21 patients
- patients who developed flu-like adverse events related to IFN (%) (overall, of all 25 patients (PEG-IFN with EYP001a or placebo), 4-week treatment): 84%

Reference: US20220241376A1, “METHOD FOR DECREASING ADVERSE-EFFECTS OF INTERFERON” (ENYO PHARMA, priority 2019, published 2022)
